From patent publication US20230381183A1, “USE OF FOLIC ACID AND FOLATE MODIFICATION IN INDUCING B-CELL IMMUNE TOLERANCE AND TARGETING mIgM-POSITIVELY-EXPRESSED B-CELL LYMPHOMA” (FUDAN UNIVERSITY, priority 2020, published 2023)

System: antibodies against trastuzumab
Experiment: Serum antibodies against trastuzumab by ELISA
Format: in vivo, BALB/c female mice
Conditions: 60 μg antibody/mouse tail vein days 0, 7, 14; serum day 21
Procedure: The BALB/c female mice (6 weeks old) were randomly divided into trastuzumab group, folate-trastuzumab group (obtained according to Example 2), FA gavage+trastuzumab group and physiological saline group, with 5 mice in each group. For the trastuzumab group and the folate-trastuzumab group, a dose of 60 μg antibody/mouse was administrated via tail vein injection on days 0, 7 and 14. For the FA gavage+trastuzumab group, each mouse was administered by gavage with 3 mg free folic acid per day for two weeks, and trastuzumab was administered via tail vein injection at a dose of 60 μg antibody/mouse on days 0, 7 and 14. For the physiological saline group, the mice were injected with physiological saline via tail vein on days 0, 7 and 14. One week after the last administration (day 21), the serum was collected from the mice, and was measured by ELISA for the antibodies against trastuzumab.

folate-trastuzumab: trastuzumab coupled with folate-PEG400-Mal
level of antibodies against trastuzumab: significantly lower than that in the trastuzumab group
